Results on one compound are retold here after patent publication EP2737897A2, “Anti-inflammatory botanical products for the treatment of metabolic syndrome and diabetes” (Metaproteomics, LLC, priority 2005, dated 2007).

Marks after values point to notes of the source that are not given here.

The subject of the test is KK-Ay diabetic mice. Particulars: 1.0 mg/kg-day by gavage, three days.

As for `CN(CCOc1ccc(CC2SC(=O)NC2=O)cc1)c1ccccn1` (centres unmarked) [Rosiglitazone], the Glucose (non-fasting serum) is 80.3# % Pretreatment. Under “serum”, this compound gave an Insulin of 88.7 % Pretreatment.
